A short description of the series: Ionization constant (pKa). The series is classed as physicochemical.

The record followed here is ChEMBL document CHEMBL1148291, “Prediction of human volume of distribution values for neutral and basic drugs. 2. Extended data set and leave-class-out statistics” (J Med Chem, 2004).

Usually pKa stands for the negative logarithm of the acid dissociation constant. A lower pKa goes with a group that gives up its proton readily. `COc1cc(Cc2cnc(N)nc2N)cc(OC)c1OC` [TRIMETHOPRIM] had a pKa of 7.26.
